The text below walks through data of patent US20260382605A1, “REVERSIBLE MACROCYCLIC KINASE INHIBITORS” (published 2026).

Sequences of proteins named here, by UniProt entry; tags and fusion partners are left off. Residues count along the entry.
UniProt P22607, 436-806 limits assumed: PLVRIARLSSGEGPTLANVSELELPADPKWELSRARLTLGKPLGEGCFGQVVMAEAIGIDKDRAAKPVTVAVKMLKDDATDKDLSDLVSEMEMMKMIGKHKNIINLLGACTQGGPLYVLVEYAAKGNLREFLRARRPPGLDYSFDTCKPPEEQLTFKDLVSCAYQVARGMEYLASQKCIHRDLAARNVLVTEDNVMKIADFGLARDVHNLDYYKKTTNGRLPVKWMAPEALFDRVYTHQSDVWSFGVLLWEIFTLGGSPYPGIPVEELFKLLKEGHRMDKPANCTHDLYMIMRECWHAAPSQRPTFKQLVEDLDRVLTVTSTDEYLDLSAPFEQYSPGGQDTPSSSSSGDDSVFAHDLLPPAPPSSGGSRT
UniProt Q06187, whole entry: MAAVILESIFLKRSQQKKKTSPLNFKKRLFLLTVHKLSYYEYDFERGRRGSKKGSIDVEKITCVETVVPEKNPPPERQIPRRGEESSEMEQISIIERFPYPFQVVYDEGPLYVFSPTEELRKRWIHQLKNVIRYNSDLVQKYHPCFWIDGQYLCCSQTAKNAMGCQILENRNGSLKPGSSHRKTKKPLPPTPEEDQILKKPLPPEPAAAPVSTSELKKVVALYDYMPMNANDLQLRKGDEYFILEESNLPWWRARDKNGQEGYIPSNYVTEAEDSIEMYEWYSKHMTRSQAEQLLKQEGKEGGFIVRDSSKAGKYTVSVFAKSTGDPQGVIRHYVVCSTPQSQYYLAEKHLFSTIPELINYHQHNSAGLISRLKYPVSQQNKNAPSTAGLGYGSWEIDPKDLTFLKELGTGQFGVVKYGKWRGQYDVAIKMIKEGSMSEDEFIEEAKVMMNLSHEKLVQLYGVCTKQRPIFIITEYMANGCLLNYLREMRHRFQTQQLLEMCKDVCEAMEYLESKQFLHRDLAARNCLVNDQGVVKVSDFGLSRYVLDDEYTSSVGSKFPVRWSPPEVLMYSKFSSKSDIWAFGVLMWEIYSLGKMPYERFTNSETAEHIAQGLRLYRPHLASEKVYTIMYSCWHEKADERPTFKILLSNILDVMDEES
UniProt P36888, 27-993 limits assumed: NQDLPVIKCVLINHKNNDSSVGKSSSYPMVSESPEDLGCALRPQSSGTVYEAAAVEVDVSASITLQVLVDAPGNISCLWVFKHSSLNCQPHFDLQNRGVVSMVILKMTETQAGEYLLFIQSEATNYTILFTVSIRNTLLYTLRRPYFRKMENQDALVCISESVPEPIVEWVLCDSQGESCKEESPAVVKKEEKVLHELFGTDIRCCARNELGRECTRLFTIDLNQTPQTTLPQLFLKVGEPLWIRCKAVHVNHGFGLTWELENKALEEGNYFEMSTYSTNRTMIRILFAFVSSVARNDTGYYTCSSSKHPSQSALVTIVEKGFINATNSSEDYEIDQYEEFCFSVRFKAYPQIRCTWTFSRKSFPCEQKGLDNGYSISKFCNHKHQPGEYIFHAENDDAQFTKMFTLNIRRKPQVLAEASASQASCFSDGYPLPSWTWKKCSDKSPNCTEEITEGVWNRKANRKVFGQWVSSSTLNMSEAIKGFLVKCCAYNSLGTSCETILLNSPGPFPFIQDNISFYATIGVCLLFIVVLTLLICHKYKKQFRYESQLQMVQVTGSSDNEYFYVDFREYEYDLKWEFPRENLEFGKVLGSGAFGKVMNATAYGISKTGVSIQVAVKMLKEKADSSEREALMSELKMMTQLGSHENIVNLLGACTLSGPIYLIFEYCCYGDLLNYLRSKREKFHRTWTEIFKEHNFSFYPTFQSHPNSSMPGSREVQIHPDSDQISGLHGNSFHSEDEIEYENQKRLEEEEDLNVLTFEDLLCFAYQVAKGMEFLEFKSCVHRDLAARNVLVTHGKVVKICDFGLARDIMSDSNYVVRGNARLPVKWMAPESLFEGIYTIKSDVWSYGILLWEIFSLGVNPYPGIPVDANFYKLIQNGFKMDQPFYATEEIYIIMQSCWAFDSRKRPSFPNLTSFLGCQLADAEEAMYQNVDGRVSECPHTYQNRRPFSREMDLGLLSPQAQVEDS
UniProt P07949, 29-1114 limits assumed: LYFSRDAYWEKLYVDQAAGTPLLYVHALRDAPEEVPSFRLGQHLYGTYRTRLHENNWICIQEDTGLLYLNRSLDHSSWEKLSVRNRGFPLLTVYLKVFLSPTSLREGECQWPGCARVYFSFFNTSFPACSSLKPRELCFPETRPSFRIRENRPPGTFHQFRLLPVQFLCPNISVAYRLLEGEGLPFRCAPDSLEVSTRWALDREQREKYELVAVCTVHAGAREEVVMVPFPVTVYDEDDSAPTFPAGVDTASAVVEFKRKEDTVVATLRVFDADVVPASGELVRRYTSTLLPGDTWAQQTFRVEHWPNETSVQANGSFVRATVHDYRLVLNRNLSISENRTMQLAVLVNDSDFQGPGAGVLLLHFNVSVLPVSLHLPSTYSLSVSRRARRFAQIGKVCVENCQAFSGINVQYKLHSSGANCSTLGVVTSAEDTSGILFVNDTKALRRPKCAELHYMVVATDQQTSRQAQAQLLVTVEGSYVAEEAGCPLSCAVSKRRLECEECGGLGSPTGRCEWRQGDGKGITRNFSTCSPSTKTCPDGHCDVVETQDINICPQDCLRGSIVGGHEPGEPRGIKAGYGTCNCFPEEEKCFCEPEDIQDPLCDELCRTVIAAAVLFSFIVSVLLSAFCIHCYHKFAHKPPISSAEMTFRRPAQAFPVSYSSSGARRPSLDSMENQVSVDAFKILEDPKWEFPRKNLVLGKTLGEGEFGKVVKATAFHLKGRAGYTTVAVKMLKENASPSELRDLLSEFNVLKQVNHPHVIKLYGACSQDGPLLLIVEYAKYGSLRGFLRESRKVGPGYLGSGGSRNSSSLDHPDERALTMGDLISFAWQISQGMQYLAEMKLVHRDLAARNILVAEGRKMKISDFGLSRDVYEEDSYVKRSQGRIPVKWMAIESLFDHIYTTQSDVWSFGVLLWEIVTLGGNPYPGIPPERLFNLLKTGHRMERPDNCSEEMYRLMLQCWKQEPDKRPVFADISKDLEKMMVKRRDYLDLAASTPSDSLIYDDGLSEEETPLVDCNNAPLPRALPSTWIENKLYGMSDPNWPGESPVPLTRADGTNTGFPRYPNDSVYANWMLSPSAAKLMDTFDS
UniProt Q96GD4, whole entry: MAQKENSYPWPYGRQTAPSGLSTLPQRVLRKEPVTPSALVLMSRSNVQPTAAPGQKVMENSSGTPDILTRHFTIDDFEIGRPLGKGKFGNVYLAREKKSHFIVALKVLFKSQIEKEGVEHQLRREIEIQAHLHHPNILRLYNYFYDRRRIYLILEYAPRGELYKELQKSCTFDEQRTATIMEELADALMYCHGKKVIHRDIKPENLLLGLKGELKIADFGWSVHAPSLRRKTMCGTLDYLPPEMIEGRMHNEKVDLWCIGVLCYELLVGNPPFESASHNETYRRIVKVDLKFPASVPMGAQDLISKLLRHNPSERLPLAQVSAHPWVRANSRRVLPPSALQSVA
UniProt P07333, 20-972 limits assumed: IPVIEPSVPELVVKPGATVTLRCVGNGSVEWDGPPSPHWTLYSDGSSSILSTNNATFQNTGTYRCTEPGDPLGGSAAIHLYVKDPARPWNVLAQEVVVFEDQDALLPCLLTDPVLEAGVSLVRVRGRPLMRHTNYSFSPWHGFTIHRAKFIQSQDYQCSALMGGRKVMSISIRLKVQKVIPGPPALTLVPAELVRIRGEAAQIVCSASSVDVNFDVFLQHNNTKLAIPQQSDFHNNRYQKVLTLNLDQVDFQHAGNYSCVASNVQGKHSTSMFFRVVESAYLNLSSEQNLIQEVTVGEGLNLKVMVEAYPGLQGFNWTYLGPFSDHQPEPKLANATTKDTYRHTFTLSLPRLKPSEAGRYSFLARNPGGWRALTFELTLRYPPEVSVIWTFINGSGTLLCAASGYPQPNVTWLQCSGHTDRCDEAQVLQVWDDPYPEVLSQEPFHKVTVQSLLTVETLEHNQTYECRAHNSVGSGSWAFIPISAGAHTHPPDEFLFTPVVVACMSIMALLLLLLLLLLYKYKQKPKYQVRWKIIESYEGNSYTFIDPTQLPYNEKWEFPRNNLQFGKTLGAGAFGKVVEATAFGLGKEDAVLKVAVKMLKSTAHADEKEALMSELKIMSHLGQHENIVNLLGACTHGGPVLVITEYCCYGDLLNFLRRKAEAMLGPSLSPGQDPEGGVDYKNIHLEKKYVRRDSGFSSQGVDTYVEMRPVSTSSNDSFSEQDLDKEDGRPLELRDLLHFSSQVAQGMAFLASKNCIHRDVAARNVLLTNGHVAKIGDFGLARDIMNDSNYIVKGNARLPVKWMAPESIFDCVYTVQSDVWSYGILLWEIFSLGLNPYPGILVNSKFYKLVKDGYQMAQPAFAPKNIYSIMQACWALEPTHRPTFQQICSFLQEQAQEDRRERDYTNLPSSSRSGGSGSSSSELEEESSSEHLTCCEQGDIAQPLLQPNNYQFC
UniProt P09619, 33-1106 limits assumed: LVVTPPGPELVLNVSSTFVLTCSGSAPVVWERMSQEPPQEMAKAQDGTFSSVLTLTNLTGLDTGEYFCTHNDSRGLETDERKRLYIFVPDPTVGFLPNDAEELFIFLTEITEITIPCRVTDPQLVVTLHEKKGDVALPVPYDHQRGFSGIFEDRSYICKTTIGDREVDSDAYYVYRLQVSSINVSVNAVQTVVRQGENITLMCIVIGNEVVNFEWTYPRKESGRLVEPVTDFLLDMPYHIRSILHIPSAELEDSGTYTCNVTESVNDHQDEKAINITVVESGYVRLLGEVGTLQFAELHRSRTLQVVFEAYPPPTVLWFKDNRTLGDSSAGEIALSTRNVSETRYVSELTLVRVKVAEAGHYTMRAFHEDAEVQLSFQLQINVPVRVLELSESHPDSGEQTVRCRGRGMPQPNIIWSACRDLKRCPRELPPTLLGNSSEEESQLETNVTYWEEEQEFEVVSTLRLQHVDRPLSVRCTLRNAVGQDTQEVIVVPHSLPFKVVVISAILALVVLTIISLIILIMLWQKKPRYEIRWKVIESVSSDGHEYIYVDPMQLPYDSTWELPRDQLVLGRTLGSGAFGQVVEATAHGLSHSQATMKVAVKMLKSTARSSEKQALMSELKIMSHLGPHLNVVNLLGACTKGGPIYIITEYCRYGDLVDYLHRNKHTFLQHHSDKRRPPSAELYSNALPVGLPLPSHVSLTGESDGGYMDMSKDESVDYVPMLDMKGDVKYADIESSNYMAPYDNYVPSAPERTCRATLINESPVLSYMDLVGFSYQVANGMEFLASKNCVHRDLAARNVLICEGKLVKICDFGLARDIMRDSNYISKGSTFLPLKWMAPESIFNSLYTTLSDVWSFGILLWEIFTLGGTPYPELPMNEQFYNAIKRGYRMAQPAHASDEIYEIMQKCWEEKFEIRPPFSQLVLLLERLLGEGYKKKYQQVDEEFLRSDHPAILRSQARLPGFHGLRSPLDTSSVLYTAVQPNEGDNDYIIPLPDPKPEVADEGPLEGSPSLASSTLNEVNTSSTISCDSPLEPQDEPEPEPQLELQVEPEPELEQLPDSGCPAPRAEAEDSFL

In assay [1] the target is FGFR3 (Homo sapiens, UniProt P22607). Briefly: Binding kinetics assay (surface plasmon resonance) FGFR3. Particulars: FGFR3, SPR, 22 °C. The source says: (§1) Binding Kinetics Assay wt-BTK, BTK C481S, LCK, FGFR1, FLT3, PDGFR-β, FMS, LYN, MEK1, AUR-B. ITK. VEGFR, EGFR, FGFR3, AXL, c-MET, SRC, YES, ABL, RET and IGFR1 (Surface Plasmon Resonance)
(§2) Streptavidin-coated chips (Cat. No. BR100531), disposables and maintenance kits for Biacore were purchased from Cytiva (Eindhoven, The Netherlands). Biotinylated wt-BTK enzym (Carna Biosciences, cat. no. 08-480-20N), BTK C481S (Carna Biosciences, cat. no. 08-417-20N), LCK (Carna Biosciences, cat. no. 08-470-20N), FGFR1 (Carna Biosciences, cat. no. 08-435-20N), FLT3 (Carna Biosciences, cat. no. 08-454-20N), PDGFR-β (Carna Biosciences, cat. no. 08-458-20N), FMS (Carna Biosciences, cat. no. 08-455-20N), LYN (Carna Biosciences, cat. no. 08-471-20N), MEK1 (Carna Biosciences, cat. no. 07-441-10-20N), AUR-B (Carna Biosciences, cat. no. 05-402-21N), ITK (Carna Biosciences, cat. no. 08-481-20N), VEGFR (Carna Biosciences, cat. no. 08-491-20N), EGFR (Carna Biosciences, cat. no. 08-415-20N), FGFR3 (Carna Biosciences, cat. no. 08-433-20N), AXL (Carna Biosciences, cat. no. 08-407-20N), c-MET (Carna Biosciences, cat. no. 08-451-20N), SRC (Carna Biosciences, cat. no. 08-473-20N), YES (Carna Biosciences, cat. no. 08-475-20N), ABL (Carna Biosciences, cat. no. 08-401-20N), RET (Carna Biosciences, cat. no. 08-459-20N) or IGFR1 (Carna Biosciences, cat. no. 08-441-20N) were immobilized on a streptavidin-coated chip to a level of about 8000 resonance units (RU) using Biacore buffer (50 mM Tris pH 7.5, 0.05% (v/v) Tween-20, 150 mM NaCl and 5 mM MgCl2)+1 mM TCEP. Remaining streptavidin was blocked with biocytin. Immobilization was performed at 4 °C. Subsequent assay steps were conducted at 22 °C. After changing buffer to Biacore buffer with 1% (v/v) dimethylsulfoxide (DMSO), a pre-run was performed for a period of at least 30 min at a flow rate of 30 μl/min to obtain a stable surface. The kinetic constants of the compounds were determined with single cycle kinetics with five consecutive injections with an increasing compound concentration with ranges of 3.16-316 nM. Experiments were performed with an association time of 100 s per concentration and a dissociation time of 1200 s, except for compounds with a long target residence time, such as irreversible inhibitors, where dissociation time was increased. To circumvent problems of mass transport limitation, a flow rate of 30 μl/min was used. A blank run with the same conditions was performed before the compound was injected. The SPR sensorgrams were analyzed with Biacore Evaluation Software by using a method of double referencing. First the reference channel was subtracted from the channel containing immobilized protein. Subsequently, the reference curve obtained with buffer injections was subtracted. The resulting curve was fitted with a 1:1 binding model. Compounds that bound according to an induced fit model were fitted with a two-state reaction model. The kinetic constants (ka, […], KD) of duplicates were geometrically averaged. Target residence time (τ) for the 1:1 binding model was calculated from the dissociation constant kd with the formula T=1/kd. Target residence for an induced fit model was calculated as described (Tummino and Copeland, 2008).
On the technique in general: Surface plasmon resonance follows binding to a sensor surface in real time, without labels.

In assay [2] the target is BTK (Act) (Homo sapiens, UniProt Q06187). The assay is described as follows: Binding kinetics assay (surface plasmon resonance) wt-BTK. Particulars: SPR, 22 °C.
Source text: as §1, §2

Assay [3] relates to REC-1 mantle cell lymphoma cells. The assay is described as follows: Cell proliferation assay REC-1. Particulars: read-out: IC50 value, REC-1 cells, 120 hours. As to the method: REC-1 mantle cell lymphoma cells were purchased from Deutsche Sammlung von Mikroorganismen und Zellkulturen (cat. no. ACC 584, DSMZ) and cultured in RPMI-1640 cell culture medium (cat. no. 61870036, Life Technologies), supplemented with 18% (v/v) fetal bovine calf serum and 1% penicillin/streptavidin. 1200 cells per well (in 45 μl) were seeded in a white 384-well culture plate (cat. no. 781080, Greiner Bio-One) and allowed to rest for at least 5 hours at 37 °C, 95% humidity, and 5% CO2. 5 μl compound solution was added to the cells and incubation was continued for 120 hours (5 days), followed by addition of 24 μl ATPlite 1Step™ (PerkinElmer, Groningen, The Netherlands) solution was added to each well. Luminescence was recorded on an Envision multimode reader. The cell signal at the start of incubation was recorded separately in order to distinguish between cell population growth and cell death. In addition, maximum growth was determined by incubation of a duplicate without compound in the presence of 0.3% DMSO. Percentage growth was used as the main y-axis signal. IC50s were fitted by non-linear regression using IDBS XLfit™5 using a 4-parameter logistic curve, yielding a maximum signal, minimum signal, hill-parameter and IC50.

Assay [4] addresses FLT3 (Homo sapiens, UniProt P36888). The assay is described as follows: Binding kinetics assay (surface plasmon resonance) FLT3. Particulars: FLT3, SPR, 22 °C.
Source text: as §1, §2

The subject of assay [5] is MV4-11 acute myelogenous leukemia cells. Briefly: Cell proliferation assay MV4-11. Conditions: read-out: IC50 value, MV4-11 cells, 72 hours. As to the method:
MV4-11 acute myelogenous leukemia cells were purchased from American Type Culture Collection (cat. no. CRL-9591, ATCC). Frozen stocks were thawed and cells were diluted in IMDM cell culture medium (cat. no. 31980022, Life Technologies), supplemented with 10% (v/v) bovine calf serum and 1% penicillin/streptavidin. 1600 cells per well (in 45 μl) were seeded in a white 384-well culture plate (cat. no. 781080, Greiner Bio-One) and allowed to rest for 24 hours at 37 °C, 95% humidity, and 5% CO2. 5 μl compound solution was added to the cells and incubation was continued for 72 hours (3 days), followed by addition of 24 μl ATPlite 1Step™ (PerkinElmer, Groningen, The Netherlands) solution was added to each well. Luminescence was recorded on an Envision multimode reader. The cell signal at the start of incubation was recorded separately in order to distinguish between cell population growth and cell death. In addition, maximum growth was determined by incubation of a duplicate without compound in the presence of 0.3% DMSO. Percentage growth was used as the main y-axis signal. IC50s were fitted by non-linear regression using IDBS XLfit™ 5 using a 4-parameter logistic curve, yielding a maximum signal, minimum signal, hill-parameter and IC50.

The test system of assay [6] is MOLM-13 acute myelogenous leukemia cells. Briefly: Cell proliferation assay MOLM-13. Particulars: read-out: IC50 value, MOLM-13 cells, 72 hours. As to the method:
MOLM-13 acute myelogenous leukemia cells were purchased from Deutsche Sammlung von Mikroorganismen und Zellkulturen (cat. no. ACC 554, DSMZ). Frozen stocks were thawed and cells were diluted in RPMI-1640 cell culture medium (cat. no. 61870036, Life Technologies), supplemented with 10% (v/v) bovine calf serum and 1% penicillin/streptavidin. 800 cells per well (in 45 μl) were seeded in a white 384-well culture plate (cat. no. 781080, Greiner Bio-One) and allowed to rest for 24 hours at 37 °C, 95% humidity, and 5% CO2. 5 μl compound solution was added to the cells and incubation was continued for 72 hours (3 days), followed by addition of 24 μl ATPlite 1Step™ (PerkinElmer, Groningen, The Netherlands) solution was added to each well. Luminescence was recorded on an Envision multimode reader. The cell signal at the start of incubation was recorded separately in order to distinguish between cell population growth and cell death. In addition, maximum growth was determined by incubation of a duplicate without compound in the presence of 0.3% DMSO. Percentage growth was used as the main y-axis signal. IC50s were fitted by non-linear regression using IDBS XLfit™5 using a 4-parameter logistic curve, yielding a maximum signal, minimum signal, hill-parameter and IC50.

The target of assay [7] is RET (Homo sapiens, UniProt P07949). Briefly: Binding kinetics assay (surface plasmon resonance) RET. Conditions: SPR, 22 °C.
Source text: as §1, §2

Assay [8] concerns KG-1 acute myeloid leukemia cells. The assay is described as follows: Cell proliferation assay KG-1. Particulars: read-out: IC50 value, KG-1 cells, 72 hours. As to the method: KG-1 acute myeloid leukemia cells were purchased from American Type Culture Collection (cat. no. CCL-246, ATCC). Frozen stocks were thawed and cells were diluted in IMDM cell culture medium (cat. no. 31980022, Life Technologies), supplemented with 20% (v/v) fetal calf serum and 1% penicillin/streptavidin. 3200 cells per well (in 45 μl) were seeded in a white 384-well culture plate (cat. no. 781080, Greiner Bio-One) and allowed to rest for 24 hours at 37 °C, 95% humidity, and 5% CO2. 5 μl compound solution was added to the cells and incubation was continued for 72 hours (3 days), followed by addition of 24 μl ATPlite 1Step™ (PerkinElmer, Groningen, The Netherlands) solution was added to each well. Luminescence was recorded on an Envision multimode reader. The cell signal at the start of incubation was recorded separately in order to distinguish between cell population growth and cell death. In addition, maximum growth was determined by incubation of a duplicate without compound in the presence of 0.3% DMSO. Percentage growth was used as the main y-axis signal.
IC50s were fitted by non-linear regression using IDBS XLfit™5 using a 4-parameter logistic curve, yielding a maximum signal, minimum signal, hill-parameter and IC50.

For assay [9], the target named is AurB (Homo sapiens, UniProt Q96GD4). Briefly: Binding kinetics assay (surface plasmon resonance) AUR-B. Conditions: SPR, 22 °C.
Source text: as §1, §2

Assay [10] deals with Fms (Homo sapiens, UniProt P07333). The assay is described as follows: Binding kinetics assay (surface plasmon resonance) FMS. Particulars: SPR, 22 °C.
Source text: as §1, §2

For assay [11], the target named is PDGFrB (Homo sapiens, UniProt P09619). Briefly: Binding kinetics assay (surface plasmon resonance) PDGFR-β. Conditions: SPR, 22 °C.
Source text: as §1, §2

pIC50, pKd: −log10 of the molar value.

As to `COc1cc(C#Cc2nn3c4c(cnc(N)c24)/C=C/CCCCCCC(=O)N2CCC[C@@H]3C2)cc(OC)c1`, in [1], the negative logarithm of the Kd (pKd) (in general, −log10 of the Kd, conventionally taken in molar units) is 7.30 to 8.30; the “Target residence time Tau (τ)” value was “A (τ between 0.2 h and 1 h)”.

Regarding `COc1ccc(F)cc1C(=O)NCc1ccc(-c2nn3c4c(cnc(N)c24)/C=C/CCCCC(=O)N[C@@H]2CCC[C@@H]3C2)cc1`, the “Target residence time Tau (τ)” value in assay [2] is “B (τ between 1 and 3 h)”. The negative-log IC50 (pIC50) (as a rule, the IC50 on a negative log10 scale, so that one unit is a factor of ten) in assay [3] is over 7.30.

As to `CC(C)(C)c1cc(NC(=O)Nc2ccc(-c3nn4c5c(cnc(N)c35)/C=C/CCCCCC(=O)N[C@@H]3CCC[C@@H]4C3)cc2)no1`, in [4], the negative-log Kd (pKd) was 7.30 to 8.30. Besides, the “Target residence time Tau (τ)” value in [4] is reported as “C (τ 3 h)”. Also, the values for the negative logarithm of the IC50 (pIC50) in assay [5] and in assay [6] were over 7.30 and over 7.12, respectively.

`CC(C)(C)c1cc(NC(=O)Cc2ccc(-c3nc4n5c(cnc(N)c35)/C=C/CCOCCC(=O)N[C@@H]3CC[C@@H]4C3)cc2)no1` showed a negative-log Kd (pKd) in assay [7] of over 8.30. Moreover, in assay [7], the “Target residence time Tau (τ)” value was “C (τ 3 h)”. Further, the negative-log IC50 (pIC50) in [5] is over 7.30; in [6], over 7.12; in assay [8] it was over 6.52.

As to `C[C@@H]1CCn2nc(-c3ccc(NC(=O)c4cccc(C(F)(F)F)c4)cc3)c3c(N)ncc(c32)/C=C/CCOCCC(=O)N1`, the negative-log Kd (pKd) in assay [9] was 7.30 to 8.30; in assay [10], 6.30 to 7.30. Also, the “Target residence time Tau (τ)” value in [9] is “A (τ between 0.2 h and 1 h)”; in assay [10], “B (τ between 1 and 3 h)”.

As for `C[C@@H]1CC(=O)N[C@@H]2CCC[C@H](C2)c2nc(-c3ccc(NC(=O)Nc4cc(C(C)(C)C)on4)cc3)c3c(N)ncc(n23)/C=C/CCN1`, in [4], the negative logarithm of the Kd (pKd) was 6.30 to 7.30; the “Target residence time Tau (τ)” value was “B (τ between 1 and 3 h)”. Besides, in assay [5], the negative logarithm of the IC50 (pIC50) was over 7.30. In addition, in [6], the negative-log IC50 (pIC50) was over 7.12.

For the compound `CC(C)(C)c1cc(NC(=O)Nc2ccc(-c3nn4c5c(cnc(N)c35)/C=C/CCCCCCC(=O)N3CCC[C@@H]4C3)cc2)no1`, in [4], the negative-log Kd (pKd) was 6.30 to 7.30; the “Target residence time Tau (τ)” value was “A (τ between 0.2 h and 1 h)”. In addition, the pIC50 in assay [5] was over 7.30. Further, the negative-log IC50 (pIC50) in assay [6] is over 7.12.

`C[C@@H]1CCn2nc(-c3ccc(NC(=O)Nc4cc(C(C)(C)C)on4)cc3)c3c(N)ncc(c32)/C=C/CCCCCC(=O)N1`: the pKd is 7.30 to 8.30 in assay [4], 6.30 to 7.30 in assay [10] and 7.30 to 8.30 in assay [11]. For the same compound, the “Target residence time Tau (τ)” value is “A (τ between 0.2 h and 1 h)” in assay [4]; “A (τ between 0.2 h and 1 h)” in assay [10]; “A (τ between 0.2 h and 1 h)” in assay [11]. Further, the negative logarithm of the IC50 (pIC50) was over 7.30 in assay [5] and over 7.12 in assay [6].

For the compound `CN1C/C=C/c2cnc(N)c3c(-c4ccc(C(=O)Nc5cc(C(F)(F)F)ccn5)cc4)nc(n23)[C@@H]2CCCN(C2)C(=O)CCCC1`, in [2], the pKd is over 8.30; the “Target residence time Tau (τ)” value is “B (τ between 1 and 3 h)”.
